Source: PubChem
Only some compounds are listed: those with a hit (about 13% of all), similar ones and a draw of the others.
Sfp PPTase inh = Sfp phosphopantetheinyl transferase inhibition; Q9F4F7; Biochemical Sfp PPTase activity, qHTS; Potency, µM, for the others: max response, negative = inhibition, most hits filed as inhibitors; 310,000 tested, 3.5% active; AID 1490; active = well fitted inhibition curve with a large enough effect; inconclusive = small, poorly fitted or top-dose-only effect, or another doubt; inactive = no such curve, though single readings can be large or run the other way;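 also: the enzyme is Sfp with the accession as filed and its product quenches rhodamine fluorescence; potency is read from the fitted curve at half-maximal effect; 0% = enzyme reaction without inhibitor and -100% = no enzyme wells; top concentration of the series not given in the record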
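Fluorescence-quenching assay: 15 nM Sfp-PPTase preincubated 15 min at room temperature with compound, then 5 uM rhodamine-CoA and 12.5 uM BHQ-2-labelled YbbR peptide added. Fluorescence (ex 525/em 598 nm) read at start and after 30 min; difference gives rate.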
ALDH1A1 inh = ALDH1A1 (human) enzyme inhibition; Purified ALDH1A1, NADH fluorescence, propionaldehyde substrate; Potency, µM (series often up to 75.3 µM), without a hit: at the highest dose activity, negative = inhibition, usual class: inhibitors; 220,000 compounds, 7.3% hits; active = well fitted inhibition curve with a large enough effect, not every such curve was filed as active; inconclusive = small, poorly fitted or top-dose-only effect, or another doubt; inactive = no such curve, though single readings can be large or run the other way;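 note: potency is the fitted concentration of half-maximal effect; plate controls were no enzyme wells and a reference inhibitor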
G9a block = G9a (human) methyltransferase inhibition. G9a H3K9 monomethylation, AlphaScreen, 2 h. 350,000 compounds, 8.8% hits. Potency, µM (titrated, usually from 102 µM), for inactives: at the top dose activity, negative = inhibition, usual class: inhibitors; note: potency is the fitted concentration of half-maximal effect; % is set by controls: 0 for no effect and ±100 for the full control effect; nearly all actives have a fitted effect of over 75% in size
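Step 1: enzyme (final 20 nM) with compound, 15 min RT. Step 2: substrate peptide 500 nM and SAM 20 uM, 2 h RT. Step 3: anti-H3K9me1 antibody and AlphaScreen beads, 10 min, then plate read.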
miR-21 reporter = miR-21 reporter, rising signal. 340,000 tested, under 10 active. Potency, µM (highest dose often 38.3 µM), for the others: at the highest dose reporter change, positive = more light. HeLa miR-21 FLuc reporter, luciferase, 48 h. AID 2288; active = well fitted rising curve with a large enough effect; inconclusive = small, poorly fitted or top-dose-only effect; inactive = no such curve, though single readings can be large or run the other way;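 further: % of control where 0% means no effect; miR-21 action dims this reporter so a rising signal means less miR-21 action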
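HeLa cells stably expressing CMV-driven firefly luciferase with a downstream miR-21 binding sequence, endogenously expressing miR-21, were treated with titrations (up to about 40uM final) for 48 hours at 37 degree Celsius. Luciferase luminescence was read after lysis.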
LMNA splice mod = LMNA splicing modulation | Potency, µM (series often up to 46.1 µM), inactives show at the top dose ratio change, negative = inhibition, actives largely listed as inhibitors | HeLa LMNA splicing GFP/RFP minigene ratio, 48 h | 200,000 compounds, 0.01% hits; active = well fitted inhibition curve with a large enough effect in the signal ratio, with a control signal flat, not every such curve was filed as active; inconclusive = small, poorly fitted or top-dose-only effect, or effect the other way, or a change in a side signal; the % refers to the signal ratio; note: potency is the fitted concentration of half-maximal effect; % is set by controls: 0 for no effect and ±100 for the full control effect
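Read-out is the ratio of GFP to DsRed2 object intensity, acquired by 488 nm laser-scanning cytometry on HeLa lamin A-EGFP minigene reporter cells. Compound incubation 48 hrs at 37 °C in Opti-MEM with 2% FBS; DMSO 0.5% final.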
JMJD2E inh = inhibitors of human JMJD2E histone demethylase. JMJD2E catalytic domain, FDH-coupled NADH fluorescence (FDH is formaldehyde dehydrogenase). Potency, µM (doses to about 57.1 µM), for the others: at the highest dose activity change, negative = inhibition, usual class: inhibitors. 230,000 compounds, 1.6% hits. AID 2147; active = well fitted inhibition curve with a large enough effect, not every such curve was filed as active; inconclusive = small, poorly fitted or top-dose-only effect, or another doubt; inactive = no such curve, though single readings can be large or run the other way;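 note: potency is the fitted concentration of half-maximal effect; 0% = wells with enzyme and -100% = buffer wells without enzyme; nearly all actives have a fitted effect of over 50% in size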
Starred values were filed as active, the others as inactive; ? = inconclusive; . = not tested or not shown; [ ] = dose if it differs, or a comment. Unless noted, calls come from the whole dose curve; as a rule, active = well fitted curve in the direction sought with a large enough effect; inconclusive = small, poorly fitted or top-dose-only effect, or another doubt; inactive = no such curve, though single readings can be large; an effect the other way counts as inactive or inconclusive.

Short keys – A = Sfp PPTase inh; B = ALDH1A1 inh; C = G9a block; D = miR-21 reporter; E = LMNA splice mod; F = JMJD2E inh
Molecule: Cc1cc(C)cc(C(=O)NCC(c2ccc(N(C)C)cc2)N2CCCC2)c1 (stereo unspecified)
  A: .	B: .	C: ?	D: 5.5%	E: ?	F: .
Molecule: COc1cc(-c2nnc(SCC(=O)Nc3cccc(C#N)c3)o2)cc(OC)c1OC
  A: .	B: .	C: ?	D: 5.4%	E: .	F: .
Molecule: CCOC(=O)c1[nH]c2ccc(OC)cc2c1NC(=S)N1CCN(c2ccccc2OC)CC1
  A: -4.2%	B: ?	C: 79.4µM*	D: 19.1%	E: ?	F: -3.4%
Molecule: CC(C(=O)Nc1ccccc1-c1ccccc1)N1CCN(C(=O)c2ccccc2)CC1 (stereo unspecified)
  A: 5.1%	B: 12.6µM*	C: -26.9%	D: 1.3%	E: 16.5%[46 µM]	F: 0.2%
Molecule: Cc1ccc(S(=O)(=O)N2CCN(C(C(=O)Nc3ccc(F)cc3)c3ccccc3)CC2)cc1 (stereo unspecified)
  A: 19.2%	B: ?	C: 12.8%[59 µM]	D: 3.9%	E: -5.2%	F: 2.1%
Molecule: CC(C(=O)N(C)c1ccccc1)N1CCN(C(=O)c2ccccc2)CC1 (stereo unspecified)
  A: 3.5%	B: .	C: 0.1%	D: 1.0%	E: .	F: .
Molecule: Cc1ccc(S(=O)(=O)N2CCN(C(C)C(=O)Nc3ccccc3-c3ccccc3)CC2)cc1 (stereo unspecified)
  A: 10.0%	B: 7.94µM*	C: 17.9%[59 µM]	D: -0.9%	E: ?	F: 3.5%
Molecule: CC1(C)Oc2ccc(C#N)cc2[C@H](N2CCCC2=O)[C@H]1O
  A: -5.2%	B: -0.2%	C: 1.4%[12.7 µM]	D: .	E: .	F: -0.1%
Molecule: C[C@@H]1CC2C3CCC4=CC(=O)C=C[C@]4(C)[C@@]3(F)[C@@H](O)C[C@]2(C)[C@@]1(O)C(=O)COC(=O)c1cccc(S(=O)(=O)O)c1 (stereo partly specified)
  A: 11.1%	B: .	C: -34.0%[12.7 µM]	D: .	E: .	F: .
Molecule: CCCCCCOc1ccc(/C(C)=N/NC2=NCCN2)cc1
  A: 56.2µM*	B: .	C: .	D: ?	E: .	F: .
Molecule: CCOc1ccc(Br)cc1C(=O)N/N=C/c1cccc(C)n1
  A: 10.1%	B: .	C: 21.5%[0.501 µM]	D: -1.2%	E: .	F: .
Molecule: CCOc1ccc(Br)cc1/C(C)=N\NC1=NCCN1
  A: 3.9%	B: -7.0%	C: 56.2µM*	D: ?	E: ?	F: -1.0%
Molecule: CCCCCOc1ccc(/C(C)=N/NC2=NCCN2)cc1
  A: -6.8%	B: .	C: 8.2%	D: -15.1%	E: .	F: .
Molecule: OC(CCN1CCOCC1)c1ccccc1 (stereo unspecified)
  A: 9.7%	B: .	C: 11.1%[59 µM]	D: -5.1%	E: .	F: .
Molecule: OC(Cn1cnnc1)c1ccccc1 (stereo unspecified)
  A: ?	B: .	C: 35.5µM*	D: -7.0%	E: .	F: .
Molecule: CCCCC(=O)OCc1c(-c2cccc(OC)c2)ncc2ccccc12
  A: .	B: .	C: -5.1%[0.501 µM]	D: .	E: .	F: .
Molecule: CN(C)c1ccc(/C=C/c2c([N+](=O)[O-])c(=O)n(C)c(=O)n2C)cc1
  A: 8.4%	B: .	C: -1.1%	D: -7.7%	E: .	F: .
Molecule: CN(C)c1ccc(-n2cccc2/C=C/[N+](=O)[O-])cc1
  A: ?	B: ?	C: 22.4µM*	D: ?	E: -16.3%[46 µM]	F: -10.7%
Molecule: COC(=O)[C@H](C)NC(=O)C/C=C\[C@@H](C)[C@@H](CO)OC
  A: -5.8%	B: 7.7%[13.5 µM]	C: .	D: .	E: .	F: .
Molecule: CCCCOc1ccc(-c2n[nH]c(=S)n2Cc2ccccc2)cc1
  A: 0.9%	B: .	C: 20µM*	D: -9.9%	E: .	F: .
Molecule: Cc1ccn2c(-c3n[nH]c(=S)n3Cc3ccccc3)c(C)nc2c1
  A: -21.7%	B: ?	C: 7.08µM*	D: -8.8%	E: -3.0%	F: -13.1%
Molecule: Oc1ccc(-c2n[nH]c(=S)n2Cc2ccccc2)cc1
  A: -9.1%	B: 20µM*	C: 1.12µM*	D: -6.4%	E: 7.7%	F: ?
Molecule: S=c1[nH]nc(-c2ccc(Br)cc2)n1Cc1ccccc1
  A: 11.1%	B: ?	C: 10µM*	D: -5.6%	E: ?	F: ?
Molecule: Fc1ccc(-c2n[nH]c(=S)n2Cc2ccccc2)cc1
  A: -10.0%	B: .	C: ?	D: -3.1%	E: .	F: .
Molecule: CCN(C(=O)c1oc2ccc(S(=O)(=O)N3CCCCCC3)cc2c1C)c1ccccc1
  A: .	B: .	C: -5.9%[59 µM]	D: ?	E: 2.8%[46 µM]	F: .

(more compounds)
Short keys – A = Sfp PPTase inh; B = ALDH1A1 inh; C = G9a block; D = miR-21 reporter; E = LMNA splice mod; F = JMJD2E inh
Molecule: NC(=O)CSc1ncc2c(n1)-c1ccccc1N(Cc1ccccc1)S2(=O)=O
  A: .	B: .	C: 6.7%[59 µM]	D: -4.4%	E: .	F: .
Molecule: O=C(CCC1N=C2c3ccccc3N=C(SCc3ccc(Cl)cc3)N2C1=O)N1CCN(c2ccccc2)CC1 (stereo unspecified)
  A: .	B: .	C: 6.4%[59 µM]	D: -0.5%	E: .	F: .
Molecule: Cc1ccc(CSC2=Nc3ccccc3C3=NC(CCC(=O)N4CCN(c5ccccc5)CC4)C(=O)N23)cc1 (stereo unspecified)
  A: .	B: .	C: 17.8µM*	D: -29.5%	E: .	F: .
Molecule: O=C(CSC1=Nc2ccccc2C2=NC(CC(=O)N3CCN(c4ccccc4)CC3)C(=O)N12)NCC1CCCO1 (stereo unspecified)
  A: -5.9%	B: ?	C: 50.1µM*	D: -5.4%	E: .	F: ?
Molecule: CCC(Sc1nc2ccccc2c2nc(CCn3c(C)nc4ccccc43)nn12)C(=O)Nc1ccc(F)cc1 (stereo unspecified)
  A: .	B: .	C: -1.1%[59 µM]	D: -2.2%	E: -3.5%[46 µM]	F: .
Molecule: CCc1ccccc1NC(=O)CSc1nc2ncccc2o1
  A: .	B: .	C: 5.5%[59 µM]	D: 0.2%	E: ?	F: .
Molecule: O=C1NC(=O)/C(=C/c2ccc3c(c2)OC(F)(F)O3)S1
  A: .	B: .	C: 55.2%[59 µM]	D: .	E: .	F: .
Molecule: Cc1ccc(S(=O)(=O)Nc2cccnc2Oc2ccc(Cl)cc2)cc1
  A: 21.1%	B: 0.02µM*	C: 56.2%	D: -0.5%	E: .	F: 1.0%
Molecule: Cc1ccc(C(=O)Nc2cccnc2Oc2ccc(Cl)cc2)cc1
  A: -4.2%	B: 3.4%	C: .	D: -10.3%	E: .	F: ?
Molecule: Cc1ccc(S(=O)(=O)Nc2cc(Cl)c(O)c3ncccc23)cc1
  A: -5.5%	B: .	C: 7.94µM*	D: 20.5%	E: .	F: .
Molecule: CCOC(=O)C1OC1c1ccccc1 (stereo unspecified)
  A: .	B: 3.7%	C: .	D: .	E: .	F: .
Molecule: Cc1ccc(C(=O)NCCNC(=O)COc2ccc(C)c(C)c2)cn1
  A: 21.9%	B: .	C: 0.0%	D: 0.4%	E: .	F: .
Molecule: COc1ccc(C(=O)Nc2nnc(SCc3cc(=O)c4cc(C)ccc4[nH]3)s2)cc1OC
  A: .	B: .	C: -28.7%[59 µM]	D: -3.1%	E: -10.8%[46 µM]	F: .
Molecule: Cc1nn(CC(=O)Nc2ccc(S(N)(=O)=O)cc2)c(=O)c2ccccc12
  A: -5.1%	B: .	C: 1.8%	D: -0.6%	E: .	F: .
Molecule: COC(=O)C1CCN(C(=O)C2CCN(C(=O)[C@@H](NS(=O)(=O)c3ccc(C)cc3)C(C)C)CC2)CC1
  A: 10.6%	B: .	C: .	D: 0.2%	E: .	F: .
Molecule: Cc1ccc(C(=O)C(c2ccccc2)N2Cc3ccccc3C2=N)cc1 (stereo unspecified)
  A: ?	B: ?	C: 11.2µM*	D: 15.4%	E: ?	F: 6.31µM*
Molecule: COc1cccc(CC2(CO)CCCN(Cc3ccc(CN4CCCCC4)s3)C2)c1 (stereo unspecified)
  A: -1.3%	B: -0.3%	C: -6.3%	D: -1.3%	E: -10.6%[46 µM]	F: -1.2%
Molecule: O=C1C(=O)N(CCN2CCOCC2)C(c2ccccc2F)/C1=C(\O)c1ccc(S(=O)(=O)N2CCOCC2)cc1 (stereo unspecified)
  A: -2.8%	B: .	C: 50.1µM*	D: 0.0%	E: .	F: .
Molecule: O=C1C(=O)N(CCN2CCOCC2)C(c2ccc(Cl)cc2)/C1=C(/O)c1ccc(S(=O)(=O)N2CCOCC2)cc1 (stereo unspecified)
  A: -9.5%	B: .	C: 56.2µM*	D: 0.3%	E: .	F: .
Molecule: CN(C)CCN1C(=O)C(=O)/C(=C(/O)c2ccccc2)C1c1ccccc1F (stereo unspecified)
  A: 1.8%	B: 17.8µM*	C: -32.1%[59 µM]	D: -3.6%	E: -5.6%	F: ?

Reprinted at random: 2 entries already listed
Short keys – A = Sfp PPTase inh; B = ALDH1A1 inh; C = G9a block; D = miR-21 reporter; E = LMNA splice mod; F = JMJD2E inh
Molecule: O=C(CCC1N=C2c3ccccc3N=C(SCc3ccc(Cl)cc3)N2C1=O)N1CCN(c2ccccc2)CC1 (stereo unspecified)
  A: .	B: .	C: 6.4%[59 µM]	D: -0.5%	E: .	F: .
Molecule: CN(C)CCN1C(=O)C(=O)/C(=C(/O)c2ccccc2)C1c1ccccc1F (stereo unspecified)
  A: 1.8%	B: 17.8µM*	C: -32.1%[59 µM]	D: -3.6%	E: -5.6%	F: ?
